Reference: ChEMBL document CHEMBL3108731, “A development of chimeric VEGFR2 TK inhibitor based on two ligand conformers from PDB: 1Y6A complex--medicinal chemistry consequences of a TKs analysis” (Eur J Med Chem, 2014)

Amino acid sequences for entries named in this document (tags omitted).
UniProt P35968, whole entry: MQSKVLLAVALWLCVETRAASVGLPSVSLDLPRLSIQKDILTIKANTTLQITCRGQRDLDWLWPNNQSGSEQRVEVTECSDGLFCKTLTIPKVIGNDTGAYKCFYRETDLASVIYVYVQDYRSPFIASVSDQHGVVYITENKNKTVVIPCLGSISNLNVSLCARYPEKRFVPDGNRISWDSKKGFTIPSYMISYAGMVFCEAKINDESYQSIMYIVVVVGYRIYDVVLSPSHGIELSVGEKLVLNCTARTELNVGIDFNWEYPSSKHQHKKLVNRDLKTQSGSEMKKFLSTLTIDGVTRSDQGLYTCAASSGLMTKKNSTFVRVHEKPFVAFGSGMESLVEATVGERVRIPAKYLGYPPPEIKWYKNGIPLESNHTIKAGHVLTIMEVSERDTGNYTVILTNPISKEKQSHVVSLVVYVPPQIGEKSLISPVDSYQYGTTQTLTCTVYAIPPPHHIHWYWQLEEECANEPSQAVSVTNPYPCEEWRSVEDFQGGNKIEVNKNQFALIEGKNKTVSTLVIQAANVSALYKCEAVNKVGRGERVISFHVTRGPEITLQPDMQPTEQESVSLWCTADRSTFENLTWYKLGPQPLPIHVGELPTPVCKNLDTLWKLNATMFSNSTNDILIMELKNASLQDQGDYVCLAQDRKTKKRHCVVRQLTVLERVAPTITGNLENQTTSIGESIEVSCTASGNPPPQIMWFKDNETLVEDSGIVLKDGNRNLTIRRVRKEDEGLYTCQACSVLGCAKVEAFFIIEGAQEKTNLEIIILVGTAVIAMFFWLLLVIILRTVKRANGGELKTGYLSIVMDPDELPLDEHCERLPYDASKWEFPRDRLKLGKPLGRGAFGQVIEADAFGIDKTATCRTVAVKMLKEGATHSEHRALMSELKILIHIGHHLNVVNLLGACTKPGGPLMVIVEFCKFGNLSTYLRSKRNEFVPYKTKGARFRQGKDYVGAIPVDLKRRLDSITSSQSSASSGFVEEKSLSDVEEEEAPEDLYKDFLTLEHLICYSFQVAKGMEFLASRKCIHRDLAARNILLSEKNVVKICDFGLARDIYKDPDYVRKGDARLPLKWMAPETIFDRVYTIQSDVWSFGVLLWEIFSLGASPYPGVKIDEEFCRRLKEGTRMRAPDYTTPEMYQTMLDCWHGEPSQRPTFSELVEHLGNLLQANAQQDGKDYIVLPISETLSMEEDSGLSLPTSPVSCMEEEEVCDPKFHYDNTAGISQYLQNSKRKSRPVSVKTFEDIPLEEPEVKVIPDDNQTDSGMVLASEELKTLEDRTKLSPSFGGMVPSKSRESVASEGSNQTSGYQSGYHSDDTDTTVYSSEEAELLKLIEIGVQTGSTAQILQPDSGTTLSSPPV

Target: Vascular endothelial growth factor receptor 2 (Homo sapiens, UniProt P35968)
Assay: Inhibition of GST-tagged recombinant human VEGFR2 expressed in Sf9 cells by radiometric assay
Assay type: cell-based

IC50: 17.1 nM
Compound: CCS(=O)(=O)c1ccc(OC)c(Nc2ncc(-c3cccc(-c4ccccn4)c3)o2)c1
